# Reference: patent US4604406A, “N-[6-methoxy-5-(perfluoroalkyl)-1-naphtholyl]-N-methylglycines and their thionaphthoyl analogs” (Ayerst, McKenna & Harrison, Inc., priority 1984, dated 1986)
# Assays:
# [1] = tested on: dulcitol accumulation in the lens; assay: % lowering dulcitol accumulation in vivo, lens (L), galactosemic rats; parameters: species or system rat (Sprague-Dawley); conditions: 4 days
# Text: (§1) Such experiments are exemplified hereinbelow after the listing of the following general comments pertaining to these experiments:
# (§2) (a) Four or more groups of six male rates, 50-70 g, Sprague-Dawley strain, were used. The first group, the control group, was fed a mixture of laboratory chow (rodent laboratory chow, Purina) and glucose at 20% (w/w %) concentration. The untreated galactosemic group was fed a similar diet in which galactose is substituted for glucose. The third group was fed a diet prepared by mixing a given amount of the test compound with the galactose containing diet. The concentration of galactose in the diet of the treated groups was the same as that for the untreated galactosemic group.
# (b) After four days, the animals were killed by decapitation. The eyeballs were removed and punctured with a razor blade; the freed lenses were rolled gently on filter paper and weighed. The sciatic nerves were dissected as completely as possible and weighed. Both tissues were frozen and can be kept up to two weeks before being analyzed for dulcitol.
# (§3) Only two minor reagent changes were made: (a) The rinsing mixture was an aqueous 5% (w/v) trichloroacetic acid solution and (b) the stock solution was prepared by dissolving 25 mg of dulcitol in 100 ml of an aqueous trichloroacetic acid solution. [N.B.: For each experiment the average value found in the tissue from rats fed the glucose diet was subtracted from the individual values found in the corresponding rat tissue to obtain the amount of polyol accumulated.]
# (§4) The figures under L, N and D represent the percentage decrease of dulcitol accumulation in the tissues of the lens, sciatic nerve and diaphragm, respectively, for treated rats as compares to untreated rats.
# [2] = tested on: dulcitol accumulation in the diaphragm; assay: % lowering dulcitol accumulation in vivo, diaphragm (D), galactosemic rats; parameters: species or system rat (Sprague-Dawley); conditions: 4 mg/kg/day in galactose diet, 4 days
# Text: as §1, §2, §3, §4
Compound,"% lowering dulcitol accumulation in vivo, L ([1]; 4 mg/kg/day in galactose diet) [%]","% lowering dulcitol accumulation in vivo, L ([1]; 11 mg/kg/day in galactose diet) [%]","% lowering dulcitol accumulation in vivo, D [2] [%]","% lowering dulcitol accumulation in vivo, L ([1]; 29 mg/kg/day in galactose diet) [%]"
"COc1ccc2c(C(=S)N(C)CC(=O)O)cccc2c1C(F)(F)F [Compound 7, N--[[5-(Trifluoromethyl)-6-methoxy-1-naphthalenyl]thioxomethyl]-N--methylglycine, reference compound]",0,14,80,–
"COc1ccc2c(C(=O)N(C)CC(=O)O)cccc2c1C(F)(F)C(F)(F)F [Compound 2, N-[[6-Methoxy-5-(pentafluoroethyl)-1-naphthalenyl]carbonyl]-N-methylglycine]",–,–,–,0
